Source: BindingDB's records for patent US8470837 (Takeda Pharmaceutical, 2013)

Chains of the proteins cited; added tags and fusions are not shown. A line that says so, or that is headed by a name, gives the form on record, which may keep a tag or linker.
UniProt Q02750, as listed by the source S218E/S222D: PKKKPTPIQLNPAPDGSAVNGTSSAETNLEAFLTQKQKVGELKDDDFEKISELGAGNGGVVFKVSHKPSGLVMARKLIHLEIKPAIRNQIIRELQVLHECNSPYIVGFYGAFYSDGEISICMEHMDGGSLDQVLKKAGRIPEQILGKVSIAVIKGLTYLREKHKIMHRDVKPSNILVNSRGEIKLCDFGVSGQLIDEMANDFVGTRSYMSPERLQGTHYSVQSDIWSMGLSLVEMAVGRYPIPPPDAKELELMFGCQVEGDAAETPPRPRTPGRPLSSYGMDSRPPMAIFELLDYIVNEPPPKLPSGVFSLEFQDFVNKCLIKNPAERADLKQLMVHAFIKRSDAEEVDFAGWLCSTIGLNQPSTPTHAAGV

Molecular target: T1, Dual specificity mitogen-activated protein kinase kinase 1 [2-31,52-393,S218E,S222D] (Homo sapiens, UniProt Q02750, S218E/S222D)
T1 construct: 2-31,52-393
Experiment: Enzyme Assay
Details: pH 7.3; 25 °C

SMILES	IC50
Cn1c(=O)cc(Nc2ccc(I)cc2F)c2c(=O)n(CCO)cnc21 [US8470837, 2]	in the range around 0.01 µM
Cc1c(Nc2ccc(I)cc2F)c2c(=O)n(C)cnc2n(C)c1=O [US8470837, 4]	in the range around 0.01 µM
Cn1c(=O)cc(Nc2ccc(I)cc2F)c2c(=O)n(C(CO)CO)cnc21 [US8470837, 24]	in the range around 0.01 µM
Cn1c(=O)c(F)c(Nc2ccc(Br)cc2F)c2c(=O)n(C[C@H](O)CO)cnc21 [US8470837, 41]	in the range around 0.01 µM
